Patent US8557814B2, “mTOR inhibitor salt forms” (OSI Pharmaceuticals, LLC, priority 2008, dated 2013)

Test: Solubility in water
Assay type: physicochemical

trans-4-[4-amino-5-(7-methoxy-1H-indol-2-yl)imidazo[5,1-f][1,2,4]triazin-7-yl]cyclohexane carboxylic acid calcium salt [Example 2]
solubility in water: < 1000 µg/mL
